This passage reports Ratio results from ChEMBL document CHEMBL3286161, “Prostanoid receptor EP2 as a therapeutic target” (J Med Chem, 2014).

The structures appear in SMILES notation.

For assay [1], the species on record is Homo sapiens. The experiment in a line: Selectivity ratio of Kb for prostanoid IP receptor (unknown origin) to Kb for EP2 receptor (unknown origin).
The species entered for assay [2] is Homo sapiens. The experiment in a line: Selectivity ratio of Kb for EP4 receptor (unknown origin) to Kb for EP2 receptor (unknown origin).

As for `CCc1nnc(NS(=O)(=O)c2ccc(NC(=S)NC(=O)/C=C/c3ccc(F)cc3)cc2)s1`, the Ratio was determined as 22 in the assay filed under Homo sapiens [1] and 440 in the assay filed under Homo sapiens [2].
